Test results reported in patent US7528227B2, “Histone H2A peptide derivatives and uses thereof” (dated 2009).

The substances below were run on SM-induced skin lesions (assay: SM-induced skin lesions in guinea pigs). Conditions: intracardial 1 mg/kg, 7 days or 7, 5, 3 days and 20 min prior to SM; FIG. 11A-C.

| Substance | protection against SM-induced skin lesions (ulceration area) |
| --- | --- |
| KGNYAERIA | statistically significant protection |

What follows are substances tested on SM-induced ear edema (assay: SM-induced ear edema, subcutaneous administration at ear base). Conditions: sc 50 μg per site 30 min after SM exposure; ear thickness 96 hours after exposure; percent of reduction in ear swelling vs control group.

| Substance | protection (%) |
| --- | --- |
| H-Leu-Arg-Lys-Gly-His-Tyr-Ala-Glu-Arg-Val-Gly-Ala-Gly-OH | 0 |
| H-Arg-Lys-Gly-His-Tyr-Ala-Glu-Arg-Val-Gly-OH | 25 |
| H-Arg-Leu-Leu-Arg-Lys-Gly-His-Tyr-Ala-Glu-Arg-Val-Gly-OH | 0 |
| H-Arg-Lys-Gly-His-Tyr-Ala-Glu-Arg-Val-Gly-Ala-OH | 11 |
| H-Arg-Leu-Leu-Arg-Lys-Gly-His-Tyr-Ala-Glu-Arg-Val-Gly-Ala-Gly-OH | 0 |
| H-Lys-Gly-His-Tyr-Ala-Glu-Arg-Val-Gly-Ala-OH | 0 |
| H-Leu-Arg-Lys-Gly-His-Tyr-Ala-Glu-Arg-Val-Gly-Ala-OH | 0 |
| H-Arg-Leu-Leu-Arg-Lys-Gly-His-Tyr-Ala-Glu-Arg-Val-Gly-Ala-OH | 0 |
| H-Leu-Arg-Lys-Gly-His-Tyr-Ala-Glu-Arg-Val-Gly-OH | 0 |
| H-Leu-Leu-Arg-Lys-Gly-His-Tyr-Ala-Glu-Arg-Val-Gly-Ala-OH | 0 |
| H-Leu-Leu-Arg-Lys-Gly-His-Tyr-Ala-Glu-Arg-Val-Gly-Ala-Gly-OH | 6 |
| H-Lys-Gly-His-Tyr-Ala-Glu-Arg-Val-Gly-Ala-Gly-OH | 0 |

Same assay, conditions: sc 50 μg per site at time intervals after SM; 96 hours after exposure; FIG. 3

| Substance | effect on SM-induced ear edema |
| --- | --- |
| H-Lys-Gly-His-Tyr-Ala-Glu-Arg-OH | protective effect |

Same assay, conditions: sc 30 min after SM, as a function of peptide concentration; 120 hours after exposure; FIG. 2

| Substance | effect on SM-induced ear edema |
| --- | --- |
| H-Lys-Gly-MeHis-MeTyr-Ala-Glu-Arg-Val-Gly-OH | protective effect |
